Experimental data from paper PMC11044049 (The Journal of Biological Chemistry, 2024).

T1: γ subunit of the E. coli clamp loader (residues 1-373) (E. coli, UniProt P06710 1-373)
T1 construct: γ subunit of the E. coli clamp loader, truncated form, residues 1-373; Stands for the single γ subunits within the γ-complex; also called γ protein; B, C and D subunits; source: E. coli BLR21(DE3), purified (HisTrap, Prescission Protease, HisTrap flowthrough); not shown: His6, N-terminal, cleaved
T1 sequence (looked up): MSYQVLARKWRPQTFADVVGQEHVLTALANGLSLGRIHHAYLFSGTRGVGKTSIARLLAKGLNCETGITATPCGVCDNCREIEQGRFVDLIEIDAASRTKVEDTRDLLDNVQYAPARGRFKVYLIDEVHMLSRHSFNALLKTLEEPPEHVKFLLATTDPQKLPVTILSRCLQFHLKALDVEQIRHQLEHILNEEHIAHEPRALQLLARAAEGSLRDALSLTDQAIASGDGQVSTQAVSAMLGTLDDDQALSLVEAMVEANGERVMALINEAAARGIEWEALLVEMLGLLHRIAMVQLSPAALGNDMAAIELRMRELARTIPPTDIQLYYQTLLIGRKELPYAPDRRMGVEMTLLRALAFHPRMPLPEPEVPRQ

T2: γ-K141A (E. coli, UniProt P06710 1-373, K141A)
T2 construct: γ subunit of the E. coli clamp loader with K141A; insert bought from Twist Bioscience; the range 1-373 is stated for the γ subunit in general; The limits 1-373 are not repeated for the mutant itself; source: E. coli BLR21(DE3), purified (Nickel NTA agarose, Prescission Protease, HisTrap); not shown: His6, N-terminal, cleaved
T2 sequence (looked up): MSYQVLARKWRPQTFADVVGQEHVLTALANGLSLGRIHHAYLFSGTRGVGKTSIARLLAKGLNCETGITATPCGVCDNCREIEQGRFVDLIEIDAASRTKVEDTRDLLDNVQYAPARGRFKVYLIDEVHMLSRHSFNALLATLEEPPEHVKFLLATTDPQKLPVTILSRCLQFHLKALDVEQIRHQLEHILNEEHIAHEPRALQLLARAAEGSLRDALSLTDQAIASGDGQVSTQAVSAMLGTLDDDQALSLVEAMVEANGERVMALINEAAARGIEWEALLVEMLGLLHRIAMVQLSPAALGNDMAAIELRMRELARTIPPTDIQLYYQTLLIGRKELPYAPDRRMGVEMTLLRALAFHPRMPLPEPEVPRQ


Experiments:
Conditions in all cases: both partners purified
[1] = target: T1, γ subunit of the E. coli clamp loader …; assay: cryo-EM structure; 2.5 μM clamp loader, 2.2 μM sliding clamp, 7 μM DNA/DNA p/t substrate, 1 mM ADP·BeFx; Open-DNAp/t, Altered-Collar, Closed-DNA1 and Closed-DNA2 states
γ-K141A = target: T2, γ-K141A; assay: reconstitution and co-elution on anion exchange (HiTrap Q); purified γ (WT or K141A), δ and δ′ (WT or K130A) combined 2.5:1:1, dialysed into Buffer Q-A (50 mM Tris pH 7.5, 50 mM NaCl, 10% glycerol, 2 mM DTT) overnight at 4 °C, eluted from a HiTrap Q column with a NaCl gradient; fractions with the intact complex pooled
[2] = target: T1, γ subunit of the E. coli clamp loader …; assay: as above

Row | binding result [1] | binding result (γ-K141A) | binding result [2] | Binder
1 | binds | – | – | E. coli sliding clamp (ß-clamp) (natural protein, β sliding clamp of E. coli DNA polymerase III; Homodimer, each subunit with three domains; also called β-clamp; source: E. coli BLR21(DE3), purified (HisTrap, Prescission Protease, HiTrap Q); not shown: His6, N-terminal, cleaved) MKFTVEREHLLKPLQQVSGPLGGRPTLPILGNLLLQVADGTLSLTGTDLEMEMVARVALVQPHEPGATTVPARKFFDICRGLPEGAEIAVQLEGERMLVRSGRSRFSLSTLPAADFPNLDDWQSEVEFTLPQATMKRLIEATQFSMAHQDVRYYLNGMLFETEGEELRTVATDGHRLAVCSMPIGQSLPSHSVIVPRKGVIELMRMLDGGDNPLRVQIGSNNIRAHVGDFIFTSKLVDGRFPDYRRVLPKNPDKHLEAGCDLLKQAFARAAILSNEKFRGVRLYVSENQLKITANNPEQEEAEEILDVTYSGAEMEIGFNVSYVLDVLNALKCENVRMMLTDSVSSVQIEDAASQSAAYVVMPMRL
2 | – | binds | binds | δ′-K130A (natural protein, E. coli, δ′ subunit of the E. coli clamp loader with K130A; insert bought from Twist Bioscience; source: E. coli BLR21(DE3), purified (Nickel NTA agarose, Prescission Protease, HisTrap); not shown: His6, N-terminal, cleaved) MRWYPWLRPDFEKLVASYQAGRGHHALLIQALPGMGDDALIYALSRYLLCQQPQGHKSCGHCRGCQLMQAGTHPDYYTLAPEKGKNTLGVDAVREVTEKLNEHARLGGAKVVWVTDAALLTDAAANALLATLEEPPAETWFFLATREPERLLATLRSRCRLHYLAPPPEQYAVTWLSREVTMSQDALLAALRLSAGSPGAALALFQGDNWQARETLCQALAYSVPSGDWYSLLAALNHEQAPARLHWLATLLMDALKRHHGAAQVTNVDVPGLVAELANHLSPSRLQAILGDVCHIREQLMSVTGINRELLITDLLLRIEHYLQPGVVLPVPHL
